# Target: Type-1 angiotensin II receptor B (Rattus norvegicus, UniProt P29089)
# Sequences of proteins named here, by UniProt entry; tags and fusion partners are left off.
# UniProt P29089, whole entry: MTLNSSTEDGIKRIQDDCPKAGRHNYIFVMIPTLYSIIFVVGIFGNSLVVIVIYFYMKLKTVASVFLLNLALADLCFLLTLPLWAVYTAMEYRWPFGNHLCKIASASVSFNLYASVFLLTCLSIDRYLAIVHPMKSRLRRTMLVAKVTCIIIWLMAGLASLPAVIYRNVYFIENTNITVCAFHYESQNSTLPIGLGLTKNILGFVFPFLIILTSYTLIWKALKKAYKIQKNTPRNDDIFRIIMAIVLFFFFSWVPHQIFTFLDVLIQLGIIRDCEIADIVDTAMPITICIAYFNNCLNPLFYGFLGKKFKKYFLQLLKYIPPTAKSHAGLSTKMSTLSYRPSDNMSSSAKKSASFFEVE
# Experiment: Inhibition of [125I]angiotensin II receptor specific binding to rat mesenteric arteries
smiles,measurement,value
CCCCc1nc(Cl)c(CC(=O)O)n1Cc1ccccc1Cl,IC50,43 µM

# — ChEMBL document CHEMBL1125320, “Imidazole-5-acrylic acids: potent nonpeptide angiotensin II receptor antagonists designed using a novel peptide pharmacophore model” (J Med Chem, 1992)
